Measurements: ChEMBL document CHEMBL1250462, “Affinity of aporphines for the human 5-HT2A receptor: insights from homology modeling and molecular docking studies” (Bioorg Med Chem, 2010)

Amino acid sequences for entries named in this document (tags omitted).
UniProt P28223, whole entry: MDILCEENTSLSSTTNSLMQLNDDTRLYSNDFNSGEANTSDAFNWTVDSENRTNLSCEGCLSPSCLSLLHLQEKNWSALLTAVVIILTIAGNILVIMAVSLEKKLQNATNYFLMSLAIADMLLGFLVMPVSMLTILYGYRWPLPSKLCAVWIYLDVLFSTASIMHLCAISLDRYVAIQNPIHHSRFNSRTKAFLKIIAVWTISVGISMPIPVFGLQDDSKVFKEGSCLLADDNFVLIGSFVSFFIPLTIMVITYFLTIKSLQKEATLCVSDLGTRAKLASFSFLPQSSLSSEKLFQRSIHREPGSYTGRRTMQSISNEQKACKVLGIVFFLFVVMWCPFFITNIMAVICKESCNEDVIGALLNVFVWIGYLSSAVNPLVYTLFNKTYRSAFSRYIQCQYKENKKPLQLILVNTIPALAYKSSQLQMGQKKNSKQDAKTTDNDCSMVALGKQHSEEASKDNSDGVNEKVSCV

Target: 5-hydroxytryptamine receptor 2A (Homo sapiens) (UniProt P28223)

Row | Structure (SMILES) | Ke
1 | COc1cc2c(c(-c3ccc4c(c3)OCO4)c1OC)C(C)N(C)CC2 (centres undefined) | > 10 µM
2 | COc1cc2c3c(c1OC)-c1cc4c(cc1CC3NCC2)OCO4 (centres undefined) | > 10 µM
3 | COc1cc2c(c(-c3ccc4c(c3)OCO4)c1OC)CN(C)CC2 | > 10 µM
4 | CCN1CCc2cc(OC)c(OC)c3c2C1Cc1cc2c(cc1-3)OCO2 (centres undefined) | > 10 µM
